From the SangsterLogP compilation

A logP of 3.23 was found for Ic1ccccc1 in this work.
